Legend:
[1] = target: 20S proteasome β5 chymotrypsin-like activity (Suc-LLVY-AMC) (Homo sapiens, UniProt P20618+P28074); assay: Protease assay, chymotrypsin-like activity of isolated 20S proteasomes (LLVY substrate); format: biochemical; conditions: read-out: IC50 β5 Chymotrypsin-like (Y); isolated 20S proteasome; LLVY-MCA 50 μM; 15 min pre-incubation
[2] = target: 20S proteasome β1 caspase-like activity (LLE-MCA) (Homo sapiens, UniProt P28072+Q99436); assay: Protease assay, caspase-like activity of isolated 20S proteasomes; conditions: read-out: IC50 β1 Caspase-like (E); isolated 20S proteasome; LLE-MCA 50 μM; 15 min pre-incubation
[3] = target: proteasomal activity in HeLa-cells (Homo sapiens, UniProt P20618+P28074); assay: Intracellular inhibition of proteasomes in cultivated HeLa-cells; conditions: 1 μM

What does the source list for `CC(C)C[C@@H](CO)NC(=O)[C@H](CC(=O)OC(C)(C)C)NC(=O)[C@H](CC(C)C)NC(=O)OC(C)(C)C`?
IC50 [1]: > 10 µM; IC50 [2]: > 10 µM; reduction of the specific proteasomal activity in cells [3]: markedly reduction
